scFv variants of Ab-14 (light chain) against a SARS-CoV-2 spike peptide

From the AlphaSeq antibody data of Li et al. 2023 (doi:10.1038/s41467-023-39022-2), copy in the FLAb collection.

All variants were tested on one target, the spike HR2 peptide PDVDLGDISGINAS (SARS-CoV-2).

The variants keep the heavy chain, the linker and the frameworks of Ab-14 (scFv order VH, the linker GGGGSGGGGSGGGGS, VL).
VH: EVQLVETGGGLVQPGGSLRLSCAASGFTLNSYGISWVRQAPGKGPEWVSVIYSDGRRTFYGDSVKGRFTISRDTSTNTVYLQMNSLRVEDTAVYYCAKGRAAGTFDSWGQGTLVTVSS
VL: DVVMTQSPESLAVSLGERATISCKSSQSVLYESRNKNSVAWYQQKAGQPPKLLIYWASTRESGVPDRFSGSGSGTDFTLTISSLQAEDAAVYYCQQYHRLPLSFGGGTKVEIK

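The starting antibody came from a phage panning campaign against this peptide. Designed CDR sequences, proposed from the first random library and measured here. Group labels follow the data file (Ctrl: baseline library sampled from a position-specific scoring matrix, with some repeated check sequences; GP: Gaussian process model; Gen: genetic algorithm; Gibbs: Gibbs sampling; a sequence that several methods proposed may carry one label only). AlphaSeq pools MATa yeast showing the antibodies with MATalpha yeast showing the peptide. After mating in shaken culture at 30 °C for 16 h, diploids were selected and their barcode pairs sequenced. Each replicate has its own calibration line, from reference interactions of the BCL2 family. Each pool was mated in six replicate cultures.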

Substitutions are numbered in sequence along the VL above, starting at 1 (not Kabat).
The read-out is the apparent dissociation constant on a log10 scale (nM): the lower, the stronger.
The mean shown is taken over the replicates in which the pair was detected.
Where no diploid with the target was found in that replicate, the entry reads "nd": below detection, most likely a poor binder, though not proof of it.
A sequence that the file lists under several names has all its replicates listed entry by entry, parted by semicolons.

The variant Y31D W56S S62Q [Ctrl] gave 0.28, 0.31, 0.09, 0.02, 0.16, 0.33 (mean 0.20; controls 0 of 18).
The variant S38N E61P H98M [Ctrl] gave 2.76, 1.61, 1.77, 1.43, 1.63, 1.62 (mean 1.80; controls 2 of 18).
The variant K24E E32V W56D P101R [Ctrl] gave nd, nd, nd, nd, nd, nd (controls 0 of 18).
The variant S25M T59I [Ctrl] gave 1.69, 1.74, 3.32, 1.18, 2.70, 1.52 (mean 2.03; controls 0 of 18).
The variant S25V Y31T W56R H98M [Ctrl] gave 0.37, 0.25, 0.22, 0.13, 0.50, 0.18 (mean 0.27; controls 0 of 18).
The variant S33G R60G H98S [Ctrl] gave nd, nd, nd, nd, nd, nd (controls 0 of 18).
The variant S25F V29F Y31A W56R [Ctrl] gave -0.02, 0.10, -0.01, -0.29, -0.30, 0.06 (mean -0.08; controls 0 of 18).
The variant S25F Q27H [Ctrl] gave nd, 1.59, nd, 1.58, 2.26, nd (mean 1.81; controls 0 of 18).
The variant L30T R34F [Ctrl] gave 3.16, nd, nd, 2.53, nd, 2.01 (mean 2.56; controls 0 of 18).
The variant S26L V29H [Ctrl] gave 1.41, 2.88, 1.82, 1.98, 2.71, 4.12 (mean 2.48; controls 0 of 18).
The variant S26N K36E S103A [Ctrl] gave 2.74, nd, 2.89, 2.47, nd, 3.08 (mean 2.79; controls 2 of 18).
The variant S26A W56G A57G [Ctrl] gave 0.73, -0.12, 0.18, 0.75, 0.38, 0.42 (mean 0.39; controls 0 of 18).
The variant R34K R60H [Ctrl] gave nd, nd, nd, nd, nd, nd (controls 0 of 18).
The variant Q27P W56D [Ctrl+GP_Gibbs] gave 0.15, -0.23, -0.33, -0.20, -0.24, -0.08; 0.03, -0.16, -0.25, -0.38, -0.22, 0.07 (mean -0.15; controls 3 of 36).
The variant L30D R34T [Ctrl] gave 2.18, 1.59, 2.34, nd, 2.12, 1.61 (mean 1.97; controls 0 of 18).
The variant K24D W56G Q95C [Ctrl] gave 2.07, nd, 2.12, 2.37, 3.13, nd (mean 2.42; controls 0 of 18).
The variant R34L W56N [Ctrl] gave 0.43, 0.35, 0.28, 0.19, 0.24, 0.31 (mean 0.30; controls 0 of 18).
The variant R34L W56D Q96P S103F [Ctrl] gave 0.53, 1.55, 0.63, 1.24, 0.42, 1.13 (mean 0.92; controls 0 of 18).
The variant S25I R34L W56D S62V Q95A Y97H [Ctrl] gave 1.89, nd, nd, nd, 2.14, 2.78 (mean 2.27; controls 1 of 18).
The variant K24W S28N W56E [Ctrl] gave 0.47, 0.64, 1.01, 1.19, 0.67, 0.83 (mean 0.80; controls 0 of 18).
The variant L30D W56D [Ctrl+GP_Gen] gave -0.06, -0.14, -0.16, -0.25, -0.24, 0.29; 0.69, 0.45, 0.30, 0.55, 0.94, 0.78 (mean 0.26; controls 3 of 36).
The variant S25V S26P S58H [Ctrl] gave 0.92, 0.52, 0.76, 0.40, 0.81, 0.66 (mean 0.68; controls 0 of 18).
The variant Y31N T59H P101L [Ctrl] gave nd, 2.54, nd, nd, 3.02, nd (mean 2.78; controls 0 of 18).
The variant S25A V29L [Ctrl] gave 0.76, 0.92, 0.87, 1.25, 1.72, 1.22 (mean 1.12; controls 0 of 18).
The variant W56Q Q95P [Ctrl] gave nd, nd, nd, nd, nd, nd (controls 1 of 18).
The variant S25Q Q27D E32D R34T W56G E61N [Ctrl] gave 0.12, 0.19, 0.16, 0.24, 0.12, 0.50 (mean 0.22; controls 1 of 18).
The variant V29D R60H R99S L100E [Ctrl] gave nd, nd, nd, nd, nd, nd (controls 1 of 18).
The variant S25Y Q27A [Ctrl] gave 3.13, 1.46, 1.65, 1.25, 0.86, 1.52 (mean 1.64; controls 2 of 18).
The variant S25I S26M L30G Y31N W56E P101H [Ctrl] gave nd, nd, nd, nd, nd, nd (controls 0 of 18).
The variant S26G W56H [Ctrl] gave 1.34, 1.38, 1.04, 1.32, 1.36, 1.36 (mean 1.30; controls 0 of 18).
The variant T59Q Q96W Y97G S103L [Ctrl] gave nd, nd, nd, nd, nd, nd (controls 1 of 18).
The variant R34W S38A W56E Y97D P101M [Ctrl] gave nd, nd, nd, nd, nd, 0.22 (controls 0 of 18).

Picked from the list: the 5 lowest averages where every replicate gave a value.

| changes | group | replicates, log10 nM | log10 Kd (nM), mean | signal with controls |
|---|---|---|---|---|
| Q27P W56D | Ctrl+GP_Gibbs | 0.15, -0.23, -0.33, -0.20, -0.24, -0.08; 0.03, -0.16, -0.25, -0.38, -0.22, 0.07 | -0.15 | 3/36 |
| S25F V29F Y31A W56R | Ctrl | -0.02, 0.10, -0.01, -0.29, -0.30, 0.06 | -0.08 | 0/18 |
| Y31D W56S S62Q | Ctrl | 0.28, 0.31, 0.09, 0.02, 0.16, 0.33 | 0.20 | 0/18 |
| S25Q Q27D E32D R34T W56G E61N | Ctrl | 0.12, 0.19, 0.16, 0.24, 0.12, 0.50 | 0.22 | 1/18 |
| L30D W56D | Ctrl+GP_Gen | -0.06, -0.14, -0.16, -0.25, -0.24, 0.29; 0.69, 0.45, 0.30, 0.55, 0.94, 0.78 | 0.26 | 3/36 |

The authors' rule: three or more of the six replicates give a measured affinity, fewer mean a poor binder.
Values of this round are not directly comparable with the first-round values of the same sequences.
Nonspecific signal, from three strains lacking the peptide, appeared in 4% of pairings of all light chain designs, centred on 2.64 (5% of these signals below 1.59); values are not corrected for it. For each scFv, signals with the empty controls are counted beside the result.
The parent sequence was in this pool as ten entries: three were never detected, three once, and four in most replicates, with averages from 0.34 to 2.37.